For one compound, IC50 and Ki results are on record in patent US20230348465A1, “IBOGAINE ANALOGS AS THERAPEUTICS FOR NEUROLOGICAL AND PSYCHIATRIC DISORDERS” (The Trustees of Columbia University in the City of New York, priority 2020, published 2023).

Sequences of proteins named here, by UniProt entry; tags and fusion partners are left off.
UniProt Q01827, whole entry: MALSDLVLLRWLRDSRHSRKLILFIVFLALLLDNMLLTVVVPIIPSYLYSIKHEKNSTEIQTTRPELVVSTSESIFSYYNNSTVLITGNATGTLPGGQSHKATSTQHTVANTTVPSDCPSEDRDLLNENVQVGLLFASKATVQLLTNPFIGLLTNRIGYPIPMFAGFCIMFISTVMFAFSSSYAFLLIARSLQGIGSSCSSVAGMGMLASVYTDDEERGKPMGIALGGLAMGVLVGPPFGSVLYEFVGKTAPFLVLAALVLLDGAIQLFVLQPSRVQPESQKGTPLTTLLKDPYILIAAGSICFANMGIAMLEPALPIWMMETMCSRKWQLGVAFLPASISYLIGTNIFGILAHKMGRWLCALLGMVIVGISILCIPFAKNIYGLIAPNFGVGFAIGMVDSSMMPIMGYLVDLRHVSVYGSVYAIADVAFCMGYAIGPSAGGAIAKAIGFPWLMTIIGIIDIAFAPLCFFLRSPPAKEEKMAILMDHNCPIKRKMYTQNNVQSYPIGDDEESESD

The target of this assay is rVMAT2 (Rattus norvegicus, UniProt Q01827). As to the kind of experiment: rVMAT2 screening assay: inhibition of uptake of the fluorescent substrate FFN206 in stably transfected rVMAT2-HEK cells.

Structures are written as SMILES.

Compound `COC(=O)[C@H]1[C@H]2C[C@@H]3c4[nH]c5cc(OC)ccc5c4CCN3C[C@H]2C[C@@H](OC(=O)c2cc(OC)c(OC)c(OC)c2)[C@@H]1OC` [Reserpine, reference compound] registered a 50% inhibitory concentration (IC50) of 17 ± 5.5 nM and a Ki of 11 ± 3.1 nM.
